Measured values reported in US9108930B2, “N1- and N2-carbamoyl-1,2,3-triazole serine hydrolase inhibitors and methods” (The Scripps Research Institute, priority 2011, dated 2015).

The chains behind the UniProt entries cited, without tags or fusion partners.
UniProt Q8VDG7, whole entry: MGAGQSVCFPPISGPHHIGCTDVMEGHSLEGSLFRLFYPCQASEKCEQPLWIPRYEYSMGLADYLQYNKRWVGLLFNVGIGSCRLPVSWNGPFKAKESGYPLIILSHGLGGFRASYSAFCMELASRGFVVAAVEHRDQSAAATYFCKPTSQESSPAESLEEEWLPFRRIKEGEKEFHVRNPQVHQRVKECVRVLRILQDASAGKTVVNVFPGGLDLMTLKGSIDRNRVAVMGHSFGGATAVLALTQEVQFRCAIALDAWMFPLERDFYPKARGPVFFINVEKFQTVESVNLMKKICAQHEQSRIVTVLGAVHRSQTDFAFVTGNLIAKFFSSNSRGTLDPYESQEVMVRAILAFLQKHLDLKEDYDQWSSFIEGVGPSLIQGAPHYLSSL

Target: PAFAH2 (Mus musculus, UniProt Q8VDG7)
Assay: Gel-based competitive ABPP, mouse T-cell proteome in vitro
Format: biochemical
Conditions: read-out: IC50 for PAFAH2, 30 minutes at 37° C.

IC50: 6 nM
Structure (SMILES): O=C(N1CCCC1)n1cc(-c2ccc(-c3ccccc3)cc2)nn1
